Measurements reported in ChEMBL document CHEMBL1139469, “Synthesis and 3D QSAR of new pyrazolo[3,4-b]pyridines: potent and selective inhibitors of A1 adenosine receptors” (J Med Chem, 2005).

Test system: Adenosine receptor A2a (Bos taurus)
Test: Displacement of [3HCGS21680 from adenosine A2A receptor in bovine cerebral cortical membranes at 10 uM

Compound | inhibition [%]
CC(C)OC(=O)c1cnc2c(cnn2CC(Cl)c2ccccc2)c1N1CCOCC1 (stereo unspecified) | 16
CCCOC(=O)c1cnc2c(cnn2CC(Cl)c2ccccc2)c1NCc1ccccc1 (stereo unspecified) | 0
CCOC(=O)c1cnc2c(cnn2CC(Cl)c2ccccc2)c1NCCc1ccccc1Cl (stereo unspecified) | 0
CCOC(=O)c1cnc2c(cnn2CC(Cl)c2ccccc2)c1NCCc1ccccc1F (stereo unspecified) | 36
COC(=O)c1cnc2c(cnn2CC(Cl)c2ccccc2)c1NC1CC1 (stereo unspecified) | 52
CCOC(=O)c1cnc2c(cnn2CC(Cl)c2ccccc2)c1NCCc1cccc(Cl)c1 (stereo unspecified) | 21

More lines, now with the values ahead:

inhibition [%] | Compound
0 | CC(C)OC(=O)c1cnc2c(cnn2CC(Cl)c2ccccc2)c1NCc1ccccc1 (stereo unspecified)
41 | CCOC(=O)c1cnc2c(cnn2CC(Cl)c2ccccc2)c1NCCc1ccc(C)cc1 (stereo unspecified)
53 | CCOC(=O)c1cnc2c(cnn2CC(Cl)c2ccccc2)c1NCCc1ccc(OC)cc1 (stereo unspecified)
34 | COc1ccc(CCNc2c(C(=O)OC(C)C)cnc3c2cnn3CC(Cl)c2ccccc2)cc1 (stereo unspecified)
29 | COC(=O)c1cnc2c(cnn2CC(Cl)c2ccccc2)c1NCCc1ccc(OC)cc1 (stereo unspecified)
